Measured affinities in a library of Ab-91 heavy chain variants

Binding partner: SARS-CoV-2 spike HR2 peptide, sequence PDVDLGDISGINAS.

Parent scFv Ab-91: VL joined to VH by a (GGGGS)3 linker. Changes lie in the heavy chain CDRs alone.
VL: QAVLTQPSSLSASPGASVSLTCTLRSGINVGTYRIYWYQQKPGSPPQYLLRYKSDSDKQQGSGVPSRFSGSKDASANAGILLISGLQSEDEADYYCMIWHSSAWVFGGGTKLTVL
VH: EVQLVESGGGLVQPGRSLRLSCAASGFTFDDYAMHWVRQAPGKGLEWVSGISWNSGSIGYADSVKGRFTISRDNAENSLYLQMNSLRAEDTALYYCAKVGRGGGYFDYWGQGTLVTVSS

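The parent was found by panning a naive human phage display library on the peptide. In library AAYL51, one, two or three CDR residues were substituted; doubles and triples were drawn at random. AlphaSeq pools MATa yeast showing the antibodies with MATalpha yeast showing the peptide. The frequency of each diploid, read from paired DNA barcodes, reflects how well the two displayed proteins bind. A regression on co-assayed BCL2-family reference pairs converts the normalised counts of each replicate to an apparent Kd. There are three technical replicates.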

Positions count from residue 1 of the parent VH; F29W puts W in place of F.
Affinities are written as log10 Kd with Kd in nM; a lower number is a better binder.
The mean shown is taken over the replicates in which the pair was detected.
Where no diploid with the target was found in any replicate, the entry reads "no signal": below detection, most likely a poor binder, though not proof of it.
For reference, the parent read 1.86 as the reference entry and 0.88 as a member of this library.
Background: pairings of library AAYL51 with three empty control strains gave a value in 21% of cases (median 4.54, 5th percentile 3.26). Values in that range, when seen in few replicates, are hard to tell from nonspecific mating. For each scFv, signals with the empty controls are counted beside the result.

| changes | log10 Kd (nM), mean | replicates with signal | empty controls |
|---|---|---|---|
| F29W+G56I+S63W | 4.48 | 1 of 3 | 2 of 9 |
| F29T+F106N | 3.64 | 1 of 3 | 2 of 9 |
| D30S+D31K+G100R | 4.51 | 2 of 3 | 1 of 9 |
| M34G+Y60H+K65W | 4.83 | 2 of 3 | 3 of 9 |
| G26W+N54V+Y105M | no signal | 0 of 3 | 2 of 9 |
| R101H+G104L | no signal | 0 of 3 | 0 of 9 |
| F29G+W53D | no signal | 0 of 3 | 2 of 9 |
| D31P+M34K+S63W | no signal | 0 of 3 | 0 of 9 |
| I58W+G59W+V99K | no signal | 0 of 3 | 2 of 9 |
| G56F+S57L+G102H | no signal | 0 of 3 | 3 of 9 |
| V64G+G100W | 2.58 | 1 of 3 | 0 of 9 |
| F27D+S52C+D107M | 4.84 | 2 of 3 | 4 of 9 |
| D62L+G102S | 4.44 | 1 of 3 | 3 of 9 |
| V99P+F106L+D107R | no signal | 0 of 3 | 1 of 9 |
| S63Y+V64E+D107V | no signal | 0 of 3 | 0 of 9 |
| Y60D+G102I+Y108L | 4.76 | 1 of 3 | 0 of 9 |
| Y32Q+S52V+G102R | no signal | 0 of 3 | 3 of 9 |
| N54Q+G56V | no signal | 0 of 3 | 0 of 9 |
| F27N+N54W+G102R | no signal | 0 of 3 | 1 of 9 |
| Y60R+S63I+F106H | no signal | 0 of 3 | 1 of 9 |
| N54S+G56K+Y108S | 2.24 | 3 of 3 | 0 of 9 |
| D62F+V64G+G104H | no signal | 0 of 3 | 3 of 9 |
| F27K+A33N+I51C | no signal | 0 of 3 | 0 of 9 |
| M34F+W53V+G103K | 6.00 | 1 of 3 | 0 of 9 |
| F29T+S57G+A61C | no signal | 0 of 3 | 0 of 9 |
| M34T+G59V+Y105W | no signal | 0 of 3 | 0 of 9 |
| Y32R+V99T+F106H | 4.96 | 1 of 3 | 2 of 9 |
| F27T+H35A+Y105Q | no signal | 0 of 3 | 1 of 9 |

The remaining entries, values ahead:

| log10 Kd (nM), mean | replicates with signal | empty controls | changes |
|---|---|---|---|
| no signal | 0 of 3 | 2 of 9 | A33W+N54L+G59T |
| 5.10 | 1 of 3 | 5 of 9 | I51D+N54M+Y108V |
| no signal | 0 of 3 | 0 of 9 | G26F+V64M+G102T |
| 3.17 | 1 of 3 | 1 of 9 | D31I+A33P+W53I |
| no signal | 0 of 3 | 0 of 9 | G26K+I51V+D107G |
| no signal | 0 of 3 | 3 of 9 | G56V+S57I+R101H |
| 2.79 | 3 of 3 | 1 of 9 | I58T+F106E+D107I |
| 3.36 | 1 of 3 | 1 of 9 | H35D+G50Q+D62M |
| 1.34 | 3 of 3 | 0 of 9 | G26E+F27R+G56F |
| no signal | 0 of 3 | 2 of 9 | A33Y+I58E+G59N |
| 4.05 | 2 of 3 | 5 of 9 | Y32P+K65D+G103Y |
| 5.15 | 3 of 3 | 5 of 9 | H35G+V99E+Y108D |
| 5.28 | 2 of 3 | 4 of 9 | Y60D+R101N+G102Y |
| no signal | 0 of 3 | 1 of 9 | S57G+K65P+G103H |
| no signal | 0 of 3 | 2 of 9 | G50I+I58N+G59N |
| 1.84 | 3 of 3 | 2 of 9 | T28E+Y105C+D107N |
| no signal | 0 of 3 | 1 of 9 | A33K+S63G+Y105M |
| no signal | 0 of 3 | 0 of 9 | G59S+R101C |
| no signal | 0 of 3 | 0 of 9 | F27S+F106W |
| no signal | 0 of 3 | 0 of 9 | G50C+R101Q+G103K |
| 3.84 | 3 of 3 | 5 of 9 | D31F+G59K+V99I |
| no signal | 0 of 3 | 1 of 9 | M34C+G50D+Y105V |
| no signal | 0 of 3 | 0 of 9 | G26V+K65H+R101G |
| 2.92 | 2 of 3 | 0 of 9 | I51L+S55A |
| 5.02 | 2 of 3 | 3 of 9 | I58P+D62H+G104M |
| 4.70 | 2 of 3 | 2 of 9 | G26N+I58P+Y108V |
| 2.92 | 1 of 3 | 0 of 9 | D31F+S55H+R101T |
| 4.19 | 1 of 3 | 2 of 9 | G50Y+S57C+G104L |

Source: Engelhart et al. 2022 (doi:10.1038/s41597-022-01779-4), MIT Lincoln Laboratory and A-Alpha Bio; data file from the FLAb repository.